Results taken from PubChem BioAssay AID588727 (Southern Research Specialized Biocontainment Screening …, 2011).
In all, about 350,000 compounds went through this assay and about 450 (0.13%) were called active. Listed are the inconclusive results; actives and inactives stand elsewhere. The rule behind the calls is not given here.

assay: inhibitors of VEEV TC-83 cytopathic effect, confirmation, Vero cells (AID 588727); details: VEEV TC-83 cytopathic effect inhibition, at 20 µM, stronger effect = higher value

Q: Which inhibition does the source give for CSc1ccc(Nc2c([N+](=O)[O-])cc([N+](=O)[O-])cc2[N+](=O)[O-])cc1 here?
A: inconclusive: 19.6%

Q: For O=[N+]([O-])c1ncn(CCn2cnc([N+](=O)[O-])n2)n1, which inhibition is on record?
A: inconclusive: 16.8%
